The subject of experiment [1] is Firefly Luciferase reporter gene driven by the C3P3-G2 system in HEK-293 cells. The experiment is described as follows: Firefly Luciferase reporter expression by the C3P3-G2 system in HEK-293 cells. The text has this: (§1) The C3P3 system was used to express the Firefly luciferase test gene (FIG. 2, i.e. pK1Ep-Luciferase-4xλBoxBr), which consists of a K1E phage RNA polymerase promoter transcribed by the C3P3 enzyme, 5′-UTR from the human β-globin gene (Genbank NM_000518.4), Kozak consensus sequence for initiation of translation followed by the ORF of the Photinus pyralis gene (i.e. Firefly luciferase; UniProtKB/Uniprot accession number Q27758) and stop codon, four BoxBL RNA tethering repeats in tandem from the lambda bacteriophage that binds at high affinity to the N-peptide of the C3P3-G2 and C3P3-G3a enzyme (nucleotides 38312-38298 of genomic sequence of Enterobacteria phage lambda KT232076.1), an artificial poly[A] track of 40 adenosine residues, followed by a self-cleaving genomic ribozyme from of the hepatitis D virus, and terminated by the bacteriophage T7 φ10 transcription stop. As a control the Firefly luciferase was expressed by standard nuclear expression system using RNA polymerase II-dependent CMV promoter (FIG. 3). The corresponding pCMVScript-Luciferase plasmid therefore contained the IE1 human CMV promoter/enhancer, Kozak consensus sequence followed by the ORF from Photinus pyralis gene (UniProtKB/Uniprot accession number Q27758), and late SV40 polyadenylation signal.
(§2) For standard experiments, the Human Embryonic Kidney 293 (HEK-293, ATCC CRL 1573) were routinely grown at 37° C. in 5% CO2 atmosphere at 100% relative humidity. Cells were maintained in Dulbecco's Modified Eagle's Medium (DMEM) supplemented with 4 mM L-alanyl-L-glutamine, 10% fetal bovine serum (FBS), 1% non-essential amino-acids, 1% sodium pyruvate, 1% penicillin and streptomycin, and 0.25% fungizone.
(§3) Cells were routinely plated in 24-well plates at 1×10^5 cells per well the day before transfection and transfected at 80% cell confluence. […]
(§4) Human cells were cultured and cotransfected with the pC3P3-G1/pK1Ep-Luciferase-4xλBoxBr or pC3P3-G2/pK1Ep-Luciferase-4xλBoxBr plasmids as previously described. For standard luciferase and hSEAP gene reporter expression assays, cells were analyzed 48 hours after transfection. […]
(§5) Luciferase luminescence was assayed by the Luciferase Assay System (Promega, Madison, Wis.) according to the manufacturer's recommendations. […] Luminescence readout was taken on a Tristar 2 microplate reader (Berthold, Bad Wildbad, Germany) with a read time of one second per well.
(§6) In order to normalize for transfection efficacy, cells were transfected with the pORF-eSEAP plasmid (InvivoGen, San Diego, Calif.), which encodes for the human secreted embryonic alkaline phosphatase (hSEAP) driven by the EF-1α/HTLV composite promoter. […] Gene reporter expression was expressed as the ratio of luciferase luminescence (RLU, relative light units) to eSEAP absorbance (OD, optic density). […]

The test system of experiment [2] is Firefly Luciferase reporter gene driven by the C3P3-G1 system in HEK-293 cells. The experiment is described as follows: Firefly Luciferase reporter expression by the C3P3-G1 system in HEK-293 cells.
Description: as §1, §2, §3, §4, §5, §6
For orientation: A reporter such as luciferase makes a cellular process visible.

Results on one compound are retold here after US20230265479A1 (priority 2020, published 2023).

SMILES strings stand for the structures.

In the case of `O=C1Nc2ccc3ncsc3c2C1=Cc1cnc[nH]1`, the “Firefly Luciferase relative ratio vs. no CAS 608512-97-6” value in experiment [1] (10 nM CAS 608512-97-6) is 497 010; NS (1.15); in experiment [1] (100 nM CAS 608512-97-6), 451 546; <0.0001 (1.30); in experiment [1] (1 μM CAS 608512-97-6) it was 180 533; <0.0001 (1.67); in experiment [1] (10 μM CAS 608512-97-6), 488 998; <0.0001 (1.50); in experiment [2] (10 nM CAS 608512-97-6), 159 871; NS (1.05); in experiment [2] (100 nM CAS 608512-97-6) it was 424 730; <0.01 (1.20). Further, the results for the “Firefly Luciferase relative ratio vs. no CAS 608512-97-6” value in experiment [2] (1 μM CAS 608512-97-6) and in experiment [2] (10 μM CAS 608512-97-6) were 367 210; <0.0001 (1.31) and 235 564; <0.0001 (1.25), respectively.
